US20110144331A1, “Cinnoline Compounds for the Treatment of Anxiety, Cognitive and Mood Disorders” (AstraZeneca AB, priority 2005, published 2011)
Read-outs that look alike come from different tables or passages of the source.

Chains of the proteins cited; added tags and fusions are not shown.
UniProt P48039, whole entry: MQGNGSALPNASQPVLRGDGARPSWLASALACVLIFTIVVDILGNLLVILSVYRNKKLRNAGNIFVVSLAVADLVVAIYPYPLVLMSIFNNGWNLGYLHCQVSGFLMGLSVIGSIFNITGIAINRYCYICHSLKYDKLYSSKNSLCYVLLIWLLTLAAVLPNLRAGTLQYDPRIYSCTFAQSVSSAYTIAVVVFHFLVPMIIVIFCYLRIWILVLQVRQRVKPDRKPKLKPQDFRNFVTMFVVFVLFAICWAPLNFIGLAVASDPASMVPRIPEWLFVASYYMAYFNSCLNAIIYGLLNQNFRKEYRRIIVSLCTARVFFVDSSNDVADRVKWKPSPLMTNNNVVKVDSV

Target: MT1 Receptor (Homo sapiens, UniProt P48039)
Experiment: MT1 Receptor Binding

SMILES | inhibition at 1 µM [%] | inhibition at 1 µM (1 μM) [%]
CCCNC(=O)c1nnc2c(-c3cc(OC)ccc3OC)c(F)ccc2c1N | 93 | 
CCCNC(=O)c1nnc2c(-c3ccc(OC)cc3OC)c(F)ccc2c1N |  | 88
